Source: PMC12621569 (Antiviral research, 2025)

Target: A (H1N1)pdm09 neuraminidase (NA) (Influenza A virus, UniProt C3W5S3)
Format: biochemical
Conditions: read-out: IC50 Mean ± SD

Question: With `CC(=O)N[C@H]1[C@H]([C@H](O)[C@H](O)CO)OC(C(=O)O)=C[C@@H]1N=C(N)N` [Zanamivir, zanamivir] as the molecule, how does the IC50 read?
Answer: 0.18 ± 0.06 nM
